Results from US6664231B1, “Anti-fungal peptides” (priority 1993, dated 2003).

Columns and labels:
Candida albicans = assay: Radial diffusion assay, Candida species (Table 2); format: cell-based; settings: higher effective concentration of agarose than Table 1
[1] = tested on: Candida albicans SLU-1 strain; assay: Serum stability, anti-fungal activity after serum incubation by radial diffusion bioassay; format: in vitro ADME, rat or human serum
Outline: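 Peptide at 1 mg/mL mixed with an equal volume of rat or human serum and held at 37° C. Samples taken at 0, 1, 2 and 4 h, extracted on C-18 solid phase, then analysed by HPLC, N-terminal sequencing and ESI/MS. Recovered peptides tested against C. albicans SLU-1 by radial diffusion.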

[2] = tested on: C. albicans (SLU-1 and other strains); format: cell-based, Candida albicans
Experimental: In additional experiments, a fluorescence-activated cell sorter (FACS) based assay was developed to test the fungicidal activity of the peptides. […] Difco) agar. Several colonies were picked from the agar plate and inoculated into 5 mL of Sabouraud's Dextrose media in a sterile 10 mL polypropylene tube. The fungal cultures were incubated for about 18 hours at 30° C. […] The culture were centrifuged at 3000 rpm for 5 minutes (Sorvall RT 6000B). After centrifugation, the supernatant was decanted leaving the fungal pellets in the centrifuge tubes. The pellets were resuspended in 15 mL of SDB. Both suspensions were combined into one tube and mixed to generate a stock culture. […] After determining the concentration of the stock, appropriate dilutions were made with Sabouraud's Dextrose media to obtain 100 mL of 1×10^6 cell/mL. […] After the 1 hour incubation, all the tubes were centrifuged at 3000 rpm for 5 minutes. […] Louis, Mo.) in Dulbecco's PBS (DPBS, GIBCO, Grand Island, N.Y.) except the autofluorescence control, which was resuspended in DPBS alone. The tubes were mixed and incubated in the dark at room temperature for at least 20 minutes. […] The settings were adjusted appropriately to the following approximate parameters: Cells were analyzed (10,000 cells/tube) and their respective fluorescence determined. […] The population of dead (i.e., propidium iodide stained) fungal cells was determined by a fluorescence threshold between the negative control and positive control.

[3] = tested on: Trychophyton rubrum ATCC 28188; format: cell-based
Experimental: (§1) The anti-fungal activity of Domain III derived peptides was evaluated against a variety of fungal species, including species of Candida. Cryptococcus, Fusarium, Trichophyton, and Aspergillus, by an additional assay protocol utilizing Alamar Blue. Alamar Blue is an indicator dye formulated to measure quantitatively the proliferation of a variety of human or animal cells, bacteria, or fungi. It consists of an oxidation-reduction (REDOX) indicator that yields a colorimetric change in response to metabolic activity. For these experiments, species of Candida and Cryptococcus were grown in Sabouraud's dextrose broth (SDB) overnight. Strains of filamentous fungi (Aspergilius, Fusanum, Trichophyton) were obtained by irrigation of a confluent culture from a petri dish. Cells were washed and adjusted to a concentration of 5.0×10^3/mL in fresh SDB. […] Controls included amphotericin B, fluconazole, ketoconazole and griseofulvin. Antifungal drugs were also diluted in the same manner. Assays were performed in 96-well microuiter plates. […] The wells to be plated were determined by OD590 readings. The lowest concentration of peptide which maintained the blue color (or OD reading) of the blank was chosen along with the next two higher concentrations. Plates were allowed to grow for 18-48 hours depending on the rate of growth of each fungus. Minimal fungicidal activity (MFC) was determined as a 99.9% killing of the starting inoculum.

[4] = tested on: Candida parapsilosis ATCC 22019; format: cell-based
Experimental: as §1

Aspergillus ATCC 13073 = format: cell-based
Experimental: as §1

[5] = tested on: Aspergillus niger ATCC 16404; format: cell-based
Experimental: as §1

[6] = tested on: Candida glabrata ATCC 2001; format: cell-based
Experimental: as §1

[7] = tested on: Cryptococcus neoformans ATCC 13690; format: cell-based
Experimental: as §1

[8] = tested on: Fusarium solani ATCC 36031; format: cell-based
Experimental: as §1

[9] = tested on: Candida albicans (SLU-1 and ATCC strains); format: cell-based
Experimental: as §1

SMILES	Anti-fungal activity: pmol/30 mm^2 zone, Candida albicans (Candida albicans)	Activity in Serum t ½ (hr.) [1]	Activity on various strains of C. albicans, IC50, 10231 [2] [µg/mL]	Activity on various strains of C. albicans, IC50, 14053 [2] [µg/mL]	Activity on various strains of C. albicans, IC50, 26555 [2] [µg/mL]	Activity on various strains of C. albicans, IC50, 90028 [2] [µg/mL]	Activity on various strains of C. albicans, IC50, SLU#1 [2] [µg/mL]	Minimum Fungicidal Concentration, Trychophyton rubrum ATCC 28188 [3] [µg/mL]	Minimum Fungicidal Concentration, Candida parapsilosis ATCC 22019 [4] [µg/mL]	Minimum Fungicidal Concentration, Aspergillus ATCC 13073 (Aspergillus ATCC 13073) [µg/mL]	Minimum Fungicidal Concentration, Aspergillus niger ATCC 16404 [5] [µg/mL]	Minimum Fungicidal Concentration, Candida glabrata ATCC 2001 [6] [µg/mL]	Minimum Fungicidal Concentration, Cryptococcus neoformans ATCC 13690 [7] [µg/mL]	Minimum Fungicidal Concentration, Fusarium solani ATCC 36031 [8] [µg/mL]	Minimum Fungicidal Concentration, Candida albicans ATCC 10231 [9] [µg/mL]	Minimum Fungicidal Concentration, Candida albicans ATCC 18840 [9] [µg/mL]	Minimum Fungicidal Concentration, Candida albicans ATCC 26555 [9] [µg/mL]	Minimum Fungicidal Concentration, Candida albicans ATCC 44808 [9] [µg/mL]	Minimum Fungicidal Concentration, Candida albicans ATCC 90028 [9] [µg/mL]	Minimum Fungicidal Concentration, Candida albicans SLU-1 [9] [µg/mL]
CC[C@H](C)[C@H](NC(=O)[C@H](CC(C)C)NC(=O)[C@H](Cc1c[nH]c2ccccc12)NC(=O)[C@H](CCCCN)NC(=O)[C@@H](N)CCCCN)C(=O)N[C@@H](CCC(N)=O)C(=O)N[C@@H](CC(C)C)C(=O)N[C@@H](CCCCN)C(=O)N[C@@H](CCCCN)C(N)=O [XMP.327]	5,108 pmol/30 mm^2 zone																			
CC[C@H](C)[C@H](NC(=O)[C@H](CC(C)C)NC(=O)[C@H](Cc1c[nH]c2ccccc12)NC(=O)[C@H](CCCCN)NC(=O)[C@H](CCCCN)NC(C)=O)C(=O)N[C@@H](CCC(N)=O)C(=O)N[C@@H](CC(C)C)C(=O)N[C@@H](CCCCN)C(=O)N[C@@H](CCCCN)C(N)=O [XMP.331]	b (No detectable activity up to 5 μg/well)	inactive																		
CC[C@H](C)[C@H](NC(=O)[C@H](CC(C)C)NC(=O)[C@H](Cc1c[nH]c2ccccc12)NC(=O)[C@@H](CCCCN)NC(=O)[C@H](N)CCCCN)C(=O)N[C@@H](CCC(N)=O)C(=O)N[C@@H](CC(C)C)C(=O)N[C@H](CCCCN)C(=O)N[C@H](CCCCN)C(N)=O [XMP.342]		indefinite	8.07	2.74	3.19	3.44	1.88	10.0	>10.0	25.00	10.00	>10.0	1.25	1.25	10.0	5.0	2.5	5.0	5.0	5.00
CC[C@@H](C)[C@@H](NC(=O)[C@@H](CCC(N)=O)NC(=O)[C@@H](CC(C)C)NC(=O)[C@@H](Cc1ccccc1)NC(=O)[C@@H](Cc1c[nH]cn1)NC(=O)[C@@H](CCCCN)NC(=O)[C@H](N)CCCCN)C(=O)N[C@H](CC(C)C)C(=O)N[C@H](Cc1c[nH]c2ccccc12)C(=O)N[C@H](CCCCN)C(N)=O [XMP.367]		indefinite		0.08	0.21	0.22	2.37	>10.0	10.0	50.00	5.00	>10.0	1.25	0.31	5.0	2.5	2.5	10.0	5.0	2.5
